The conditions of this data set: 4M sodium salicylate, at room temperature.

For `O=C([O-])c1ccccc1O.[Na+]` [sodium salicylate], the RI is given as 1.455.

The values above are taken from patent US20240167922A1, “TRANSPARENTIZING REAGENT AND TRANSPARENTIZING METHOD” (KYOTO UNIVERSITY, priority 2021, published 2024).
